From paper PMC7938888, “Antidepressant drugs act by directly binding to TRKB neurotrophin receptors” (Cell, 2021)

Sequences of proteins named here, by UniProt entry; tags and fusion partners are left off. Residues count along the entry.
UniProt P15209, 32-821: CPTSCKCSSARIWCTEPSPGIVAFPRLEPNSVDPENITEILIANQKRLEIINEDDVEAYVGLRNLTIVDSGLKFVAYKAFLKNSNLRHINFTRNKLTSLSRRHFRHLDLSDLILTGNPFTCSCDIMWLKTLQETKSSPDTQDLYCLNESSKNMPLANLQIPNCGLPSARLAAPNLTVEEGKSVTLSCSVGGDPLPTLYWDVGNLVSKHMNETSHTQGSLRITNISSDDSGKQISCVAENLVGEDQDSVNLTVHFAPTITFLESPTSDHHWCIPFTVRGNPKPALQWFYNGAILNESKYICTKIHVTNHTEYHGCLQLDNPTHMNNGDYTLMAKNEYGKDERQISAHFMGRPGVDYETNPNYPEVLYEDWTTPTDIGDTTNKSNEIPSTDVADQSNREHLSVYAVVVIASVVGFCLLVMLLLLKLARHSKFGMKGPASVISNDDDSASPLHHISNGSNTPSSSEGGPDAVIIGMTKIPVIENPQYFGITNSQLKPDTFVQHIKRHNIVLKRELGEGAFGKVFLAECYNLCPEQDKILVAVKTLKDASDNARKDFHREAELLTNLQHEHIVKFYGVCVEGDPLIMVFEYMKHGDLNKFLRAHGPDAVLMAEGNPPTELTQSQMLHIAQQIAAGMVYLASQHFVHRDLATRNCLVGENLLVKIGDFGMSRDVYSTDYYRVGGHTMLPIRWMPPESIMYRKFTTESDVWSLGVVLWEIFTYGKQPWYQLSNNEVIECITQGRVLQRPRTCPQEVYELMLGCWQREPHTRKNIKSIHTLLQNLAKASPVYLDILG
UniProt P15209, 32-821 Y433F: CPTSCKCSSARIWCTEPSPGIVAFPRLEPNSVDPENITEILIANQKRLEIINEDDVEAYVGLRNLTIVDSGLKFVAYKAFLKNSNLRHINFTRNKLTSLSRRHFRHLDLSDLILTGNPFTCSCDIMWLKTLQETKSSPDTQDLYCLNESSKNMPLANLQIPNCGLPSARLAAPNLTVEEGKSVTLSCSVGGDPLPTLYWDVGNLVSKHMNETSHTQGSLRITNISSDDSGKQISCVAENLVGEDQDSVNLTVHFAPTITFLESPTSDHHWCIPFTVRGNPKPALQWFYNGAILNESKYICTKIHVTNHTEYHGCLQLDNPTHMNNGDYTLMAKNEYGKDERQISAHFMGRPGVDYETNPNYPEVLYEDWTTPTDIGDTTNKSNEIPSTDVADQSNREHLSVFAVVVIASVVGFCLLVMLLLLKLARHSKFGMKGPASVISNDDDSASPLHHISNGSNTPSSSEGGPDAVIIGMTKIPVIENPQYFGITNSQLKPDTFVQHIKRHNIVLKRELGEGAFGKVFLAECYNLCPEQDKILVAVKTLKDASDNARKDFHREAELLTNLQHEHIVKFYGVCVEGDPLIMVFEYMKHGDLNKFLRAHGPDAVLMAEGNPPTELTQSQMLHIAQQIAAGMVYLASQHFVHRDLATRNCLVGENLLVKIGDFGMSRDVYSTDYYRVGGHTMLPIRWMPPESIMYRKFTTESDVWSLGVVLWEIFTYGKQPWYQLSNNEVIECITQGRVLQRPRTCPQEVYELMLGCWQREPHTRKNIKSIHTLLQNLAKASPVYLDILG
UniProt P15209, 32-821 S440A: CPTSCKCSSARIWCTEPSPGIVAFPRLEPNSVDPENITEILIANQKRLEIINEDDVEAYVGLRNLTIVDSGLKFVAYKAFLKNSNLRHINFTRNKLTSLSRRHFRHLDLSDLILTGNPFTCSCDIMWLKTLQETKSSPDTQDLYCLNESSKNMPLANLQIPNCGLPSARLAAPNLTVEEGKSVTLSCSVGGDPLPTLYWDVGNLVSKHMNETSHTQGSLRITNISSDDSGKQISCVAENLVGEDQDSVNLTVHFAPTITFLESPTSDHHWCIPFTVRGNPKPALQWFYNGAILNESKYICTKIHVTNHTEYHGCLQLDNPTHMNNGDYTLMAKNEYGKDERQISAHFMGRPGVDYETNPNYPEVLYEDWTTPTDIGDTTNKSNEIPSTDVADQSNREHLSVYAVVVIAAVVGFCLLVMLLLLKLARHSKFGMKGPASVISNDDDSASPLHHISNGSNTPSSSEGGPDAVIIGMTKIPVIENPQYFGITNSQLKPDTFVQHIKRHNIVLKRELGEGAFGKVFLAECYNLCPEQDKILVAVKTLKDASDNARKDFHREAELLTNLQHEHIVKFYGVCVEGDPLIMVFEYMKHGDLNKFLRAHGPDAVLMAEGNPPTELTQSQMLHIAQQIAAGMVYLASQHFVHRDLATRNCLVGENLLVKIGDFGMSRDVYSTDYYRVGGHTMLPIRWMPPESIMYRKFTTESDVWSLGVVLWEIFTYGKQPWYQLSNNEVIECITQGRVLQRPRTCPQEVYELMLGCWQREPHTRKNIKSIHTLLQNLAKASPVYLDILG
UniProt P15209, 32-821 V437A: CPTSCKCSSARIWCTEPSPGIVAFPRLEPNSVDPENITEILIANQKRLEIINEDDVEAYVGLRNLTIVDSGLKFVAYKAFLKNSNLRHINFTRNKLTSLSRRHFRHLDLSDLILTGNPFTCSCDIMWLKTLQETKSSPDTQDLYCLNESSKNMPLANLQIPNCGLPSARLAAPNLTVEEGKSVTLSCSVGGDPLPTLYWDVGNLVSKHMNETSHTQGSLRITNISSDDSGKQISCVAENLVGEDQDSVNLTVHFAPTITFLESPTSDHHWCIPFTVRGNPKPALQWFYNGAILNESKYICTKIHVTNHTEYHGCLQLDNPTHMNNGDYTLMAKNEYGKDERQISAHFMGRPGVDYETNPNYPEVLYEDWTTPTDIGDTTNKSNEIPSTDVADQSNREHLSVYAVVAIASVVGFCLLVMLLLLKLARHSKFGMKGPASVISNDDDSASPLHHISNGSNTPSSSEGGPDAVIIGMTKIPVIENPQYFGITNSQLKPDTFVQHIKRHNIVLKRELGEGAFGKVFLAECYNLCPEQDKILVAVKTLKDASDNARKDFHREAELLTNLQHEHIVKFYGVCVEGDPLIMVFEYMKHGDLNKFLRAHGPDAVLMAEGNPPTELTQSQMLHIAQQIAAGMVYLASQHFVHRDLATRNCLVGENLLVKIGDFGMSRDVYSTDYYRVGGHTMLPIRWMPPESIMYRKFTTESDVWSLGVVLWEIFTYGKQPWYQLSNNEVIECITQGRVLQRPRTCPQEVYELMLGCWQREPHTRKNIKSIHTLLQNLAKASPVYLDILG

Experiments:
GFP-TRKB = biological target: T1, GFP-TRKB (Mus musculus, UniProt P15209); assay: Microscale thermophoresis (MST) in lysates of GFP-TRKB expressing HEK293T cells; type: binding; settings: unlabeled FLX 0-100 μM, 15 min, lysates of transfected HEK293T cells
T1 construct: wild-type GFP-tagged full length TRKB or the GFP-tagged Y433F TRKB mutant; host or cells: HEK293T
Procedure: Microscale Thermophoresis - MST - experiments were performed using Monolith NT.115 (Blue/Red) instrument (NanoTemper Technologies GmbH, Germany). The cell lysates of HEK293T cells expressing GFP-TRKB were used as a source of fluorescently labeled TRKB. HEK293T cells were transfected with GFP-fused TRKB as described and lysed 24h after transfection. […] The lysates of non-transfected HEK293T cells were used to evaluate background fluorescence, which appeared to be undetectable in current MST set up. […] The measurements were done in premium coated capillaries (NanoTemper Technologies GmbH, MO-K025) using LED source with 470nm and 50% infrared-laser power at 25°C. Hill model was used to evaluate binding affinity, each data point represents mean ΔFnorm values from four independent experiments. The bound fraction of the GFP-TRKB was determined and the fitting was performed using the Hill model method incorporated by the MO Affinity Analysis v2.3 software (NanoTemper Technologies).

TRKB.Y433F = biological target: T2, TRKB.Y433F (Mus musculus, UniProt P15209, Y433F); assay: Cell-free ligand binding assay, TRKB.Y433F mutant; settings: biotinylated fluoxetine
T2 construct: wild-type GFP-tagged full length TRKB or the GFP-tagged Y433F TRKB mutant; host or cells: HEK293T
Procedure: (§1) The cell-free assays (binding assays) were performed in white 96-well plates, based on the protocol used for western-blotting or ELISA ([Baeza-Raja et al., 2016]; [Das et al., 2015]). The plates were precoated with anti-GFP, anti-FLAG, anti-TRK or anti-TRKB antibody (1:1000) in carbonate buffer (pH 9.8), ON at 4°C. Following blocking with 3% BSA in PBS buffer (2 h at RT), 120 ug of total protein from each sample (of lysates from HEK293T cells transfected to overexpress GFP-TRKB.wt or GFP-TRKB.Y433F) were added and incubated overnight at 4°C under agitation. […] The luminescence was determined via HRP-conjugated streptavidin (1:10000, 1h, RT) activity reaction with ECL by a plate reader. The luminescence signal from blank wells (containing all the reagents but the sample lystates, substituted by the blocking buffer) was used as background. The specific signal was then calculated by subtracting the values of blank wells from the values of the samples with matched concentration of the biotinylated ligand. For Figure 2E, the precipitated TRKB.wt or Y433F was incubated with tritiated imipramine (0-30μM) and the radioactive emission of the ligand was determined by scintillation (OptiPhase Supermix cocktail: #1200-439; MicroBeta2, Perkin-Elmer). […]

TRKB.S440A = TRKB.S440A (Mus musculus, UniProt P15209, S440A); settings: biotinylated fluoxetine
Procedure: as §1

TRKB.V437A = TRKB.V437A (Mus musculus, UniProt P15209, V437A); settings: biotinylated fluoxetine
Procedure: as §1

mice = assay: Ocular dominance plasticity (monocular deprivation, intrinsic signal imaging); type: in vivo, mouse
Procedure: The “transparent skull” preparation was executed as described in literature ([Steinzeig et al., 2017]). Briefly, adult female mice (20-22 weeks old) were anesthetized via i.p. injection with a mixture containing: 0.05 mg/kg fentanyl (Hameln, Germany); 5 mg/kg midazolam (Hameln, Germany); 0.5 mg/kg medetomidine (Orion Pharma, Finland); diluted in saline (B Braun, Germany). The animals’ eyes were covered with protective-gel (Alcon, UK). The animal’s head was shaved and disinfected with ethanol and Betadine. The mouse head was then fixed on the stereotaxic frame and the temperature was maintained at 37°C. A mixture of lidocaine and adrenaline (Orion Pharma, Finland) was applied locally on the head and the skin was cut with spring scissors. The incision area was restricted 2 mm above the bregma and caudal edge of intraparietal bone. The scalp was removed and a focused air stream and a cotton swab were used to clean and stop bleeding. The periosteum was gently scratched away from the skull with an eye scalpel and the temporal muscles were pushed aside, in order to expose enough space around the area of interest to attach the metal holder. When the skull was smooth, white and dry, fat was removed from the skull rapidly by passing on it a cotton swab soaked in acetone and the air current was used to avoid its penetration into the bone. Then, with a metal stick, a thin layer of cyanoacrylate glue (Loctite 401, Henkel, Germany) was applied to the surface of the skull, in order to make the skull transparent. After waiting 10 minutes for the glue to dry, a first layer of acryl was applied on the skull surface with a brush. Acryl was used to prolong the life of the transparency and was prepared by stirring acrylic powder (EUBECOS, Germany) with methacrylate liquid (Densply, Germany) until a nail-polish consistency was reached. […]
Optical imaging. The saturation of haemoglobin in the primary visual cortex of the right hemisphere was measured to assess cortical activity ([Cang et al., 2005]; [Kalatsky and Stryker, 2003]). […]

in vivo = settings: mouse, prefrontal cortex, oral, 15 mg/kg/day, FLX brain concentration, 15 mg/kg/day in drinking water for 21 days, mean of Table S2

SMILES: CNCCC(Oc1ccc(C(F)(F)F)cc1)c1ccccc1 (centres unmarked) [FLX, fluoxetine]
- direct binding to GFP-tagged TRKB (MST) (GFP-TRKB): directly binds
- FLX binding to TRKB.Y433F (TRKB.Y433F): essentially lost
- FLX binding to TRKB.S440A (TRKB.S440A): significantly reduced
- FLX binding to TRKB.V437A (TRKB.V437A): essentially lost
- effect on shift in ocular dominance (mice; TRKB.Y433F mice): lost
- shift in ocular dominance after 7-day monocular deprivation (mice; adult mice, FLX 10 mg/kg/day for 4 weeks): dramatic shift in OD
- effect on shift in ocular dominance (mice; wild-type mice co-treated with pravastatin): lost
- concentration at 21 days (in vivo): 31.9 ± 5.9 µM
